Source: US20250382298A1, “NITROGEN-CONTAINING COMPOUND AND USE THEREOF” (SUZHOU GENHOUSE BIO CO., LTD., priority 2022, published 2025)

Experiments:
OVCAR3 cells [1] = experiment: Detection of OVCAR3 cell proliferation activity by CTG method; conditions: read-out: OVCAR3 CTG method IC50, CellTiter-Glo, 7 days
OVCAR3 cells [2] = experiment: Detection of cell proliferation activity by CCK8 method (OVCAR3); conditions: read-out: OVCAR3 CCK8 method IC50, CCK8, 96 h
HT-29 cells [3] = experiment: Detection of cell proliferation activity by CCK8 method (HT-29); conditions: read-out: HT-29 CCK8 method IC50, CCK8, 96 h
BT-549 cells = experiment: Detection of cell proliferation activity by CCK8 method (BT-549); conditions: read-out: BT-549 CCK8 method IC50, CCK8, 96 h
HCT-116 cells [4] = experiment: Detection of cell proliferation activity by CCK8 method (HCT-116); conditions: read-out: HCT-116 CCK8 method IC50, CCK8, 96 h
HT-29 cells [5] = experiment: Mitotic index analysis, pH3 expression in HT-29 cells; conditions: read-out: HT-29 EC50 (pH3 expression), 24 h treatment
HCT-116 cells [6] = experiment: Mitotic index analysis, pH3 expression in HCT-116 cells; conditions: read-out: HCT-116 EC50 (pH3 expression), 24 h treatment
[7] = Stability test in human liver microsomes; conditions: human liver microsomes 0.5 mg/mL, 1.0 μM substrate
[8] = Stability test in rat liver microsomes; conditions: rat liver microsomes 0.5 mg/mL, 1.0 μM substrate
[9] = Stability test in mouse liver microsomes; conditions: mouse liver microsomes 0.5 mg/mL, 1.0 μM substrate
[10] = Pharmacokinetic test in mice; conditions: BALB/c mice
[11] = Pharmacokinetic test in rats; conditions: SD rats, PO @5mpk

Question: For Cn1ncc2cc(NC(=O)c3ccc(NS(=O)(=O)CCO)cc3N3CCC4(CC3)CC4)nc(N3CCC(F)(F)CC3)c21, which IC50 (OVCAR3 cells [1]) is on record?
Answer: 6.1 nM

Question: And the IC50 (OVCAR3 cells [2])?
Answer: 4.4 nM

Question: What about the IC50 (HT-29 cells [3]) of the same molecule?
Answer: 13.5 nM

Question: And the IC50 (BT-549 cells)?
Answer: 16.2 nM

Question: And the IC50 (HCT-116 cells [4])?
Answer: > 10000 nM

Question: What about the EC50 (HT-29 cells [5]) of the same molecule?
Answer: 9.6 nM

Question: What about the EC50 (HCT-116 cells [6]) of the same molecule?
Answer: > 10000 nM

Question: What about the “HLM 0.5 CLint(liver)” value [7] of the same molecule?
Answer: <8.6 mL/min/kg

Question: What about the “HLM 0.5 T½” value [7] of the same molecule?
Answer: >2.42 h

Question: And the “RLM 0.5 CLint(liver)” value [8]?
Answer: <17.3 mL/min/kg

Question: What about the “RLM 0.5 T½” value [8] of the same molecule?
Answer: >2.42 h

Question: What about the “MLM 0.5 CLint(liver)” value [9] of the same molecule?
Answer: <38.0 mL/min/kg

Question: What about the “MLM 0.5 T½” value [9] of the same molecule?
Answer: >2.42 h

Question: What about the AUC ([10]; PO @5mpk) of the same molecule?
Answer: 16.331 µM·h

Question: What about the Cmax ([10]; PO @5mpk) of the same molecule?
Answer: 1730 nM

Question: What about the F ([10]; PO @5mpk) of the same molecule?
Answer: 135%

Question: And the t½ ([10]; PO @5mpk)?
Answer: 2.8 h

Question: Which IC50 (OVCAR3 cells [1]) does the source give for O=C(Nc1cc2cccnc2c(N2CCC(F)(F)CC2)n1)c1ccc(NS(=O)(=O)CCO)cc1N1CC2CCC(C2)C1 here?
Answer: 29.3 nM

Question: And the IC50 (OVCAR3 cells [2])?
Answer: 19.3 nM

Question: What about the IC50 (HT-29 cells [3]) of the same molecule?
Answer: 38 nM

Question: And the IC50 (BT-549 cells)?
Answer: 73.6 nM

Question: And the IC50 (HCT-116 cells [4])?
Answer: > 10000 nM

Question: And the EC50 (HT-29 cells [5])?
Answer: 12.3 nM

Question: And the EC50 (HCT-116 cells [6])?
Answer: > 10000 nM

Question: What about the AUC ([10]; PO @30mpk) of the same molecule?
Answer: 537.225 µM·h

Question: What about the Cmax ([10]; PO @30mpk) of the same molecule?
Answer: 28400 nM

Question: And the F ([10]; PO @30mpk)?
Answer: 136%

Question: And the t½ ([10]; PO @30mpk)?
Answer: 19.5 h

Question: And the AUC [11]?
Answer: 5.787 µM·h

Question: What about the Cmax [11] of the same molecule?
Answer: 390 nM

Question: And the F [11]?
Answer: 54%

Question: And the t½ [11]?
Answer: 8.1 h
